Experimental data published in ChEMBL document CHEMBL4507304, “Data for DCP probe TP-021” (2021).

Amino acid sequences for entries named in this document (tags omitted). A change or cut given only in a name is not applied to a line headed by its entry.
UniProt P21918, whole entry: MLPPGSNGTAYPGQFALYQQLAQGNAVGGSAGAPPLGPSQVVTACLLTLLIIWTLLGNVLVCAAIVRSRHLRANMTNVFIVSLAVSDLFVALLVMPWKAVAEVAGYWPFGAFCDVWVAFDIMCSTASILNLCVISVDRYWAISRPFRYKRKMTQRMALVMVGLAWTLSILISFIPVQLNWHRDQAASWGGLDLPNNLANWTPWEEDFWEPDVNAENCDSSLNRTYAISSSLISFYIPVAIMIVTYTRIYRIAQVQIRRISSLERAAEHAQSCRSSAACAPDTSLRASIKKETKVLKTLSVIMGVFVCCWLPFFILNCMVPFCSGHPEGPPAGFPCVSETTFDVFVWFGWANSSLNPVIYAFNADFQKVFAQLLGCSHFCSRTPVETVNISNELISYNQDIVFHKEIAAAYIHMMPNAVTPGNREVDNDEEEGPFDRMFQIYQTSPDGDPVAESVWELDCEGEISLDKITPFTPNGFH
UniProt Q9Y2H1: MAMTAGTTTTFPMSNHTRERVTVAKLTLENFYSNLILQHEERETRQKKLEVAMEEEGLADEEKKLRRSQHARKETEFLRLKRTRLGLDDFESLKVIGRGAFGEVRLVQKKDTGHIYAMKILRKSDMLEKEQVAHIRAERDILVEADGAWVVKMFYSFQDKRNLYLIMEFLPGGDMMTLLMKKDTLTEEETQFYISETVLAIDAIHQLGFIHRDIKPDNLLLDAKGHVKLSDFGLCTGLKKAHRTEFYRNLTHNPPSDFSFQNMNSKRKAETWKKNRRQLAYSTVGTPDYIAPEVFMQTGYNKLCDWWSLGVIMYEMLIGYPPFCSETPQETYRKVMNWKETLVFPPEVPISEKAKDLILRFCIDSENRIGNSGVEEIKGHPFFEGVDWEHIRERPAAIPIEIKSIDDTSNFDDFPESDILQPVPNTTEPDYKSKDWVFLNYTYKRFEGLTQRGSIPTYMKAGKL
UniProt P19525: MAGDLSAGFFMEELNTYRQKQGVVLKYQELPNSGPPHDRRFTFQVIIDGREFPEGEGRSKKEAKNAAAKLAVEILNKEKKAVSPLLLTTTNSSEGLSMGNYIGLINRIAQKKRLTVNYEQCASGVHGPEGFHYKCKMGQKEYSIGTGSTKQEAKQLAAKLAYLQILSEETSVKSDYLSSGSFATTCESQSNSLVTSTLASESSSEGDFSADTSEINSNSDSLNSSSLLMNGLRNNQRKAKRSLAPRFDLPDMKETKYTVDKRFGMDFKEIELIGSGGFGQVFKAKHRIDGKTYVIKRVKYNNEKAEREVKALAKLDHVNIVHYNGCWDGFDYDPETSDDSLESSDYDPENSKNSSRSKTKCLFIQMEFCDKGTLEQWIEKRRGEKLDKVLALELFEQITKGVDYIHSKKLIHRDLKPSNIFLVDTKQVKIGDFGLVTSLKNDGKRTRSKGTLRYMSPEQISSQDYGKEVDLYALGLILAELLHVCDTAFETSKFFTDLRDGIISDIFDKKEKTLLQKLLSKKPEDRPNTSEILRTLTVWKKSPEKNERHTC

Columns and labels:
[1] = molecular target: T1, Serine/threonine-protein kinase Nek3 (Homo sapiens) (UniProt P51956); conditions: Compound concentration 1000.0 nM
T1 sequence (whole entry): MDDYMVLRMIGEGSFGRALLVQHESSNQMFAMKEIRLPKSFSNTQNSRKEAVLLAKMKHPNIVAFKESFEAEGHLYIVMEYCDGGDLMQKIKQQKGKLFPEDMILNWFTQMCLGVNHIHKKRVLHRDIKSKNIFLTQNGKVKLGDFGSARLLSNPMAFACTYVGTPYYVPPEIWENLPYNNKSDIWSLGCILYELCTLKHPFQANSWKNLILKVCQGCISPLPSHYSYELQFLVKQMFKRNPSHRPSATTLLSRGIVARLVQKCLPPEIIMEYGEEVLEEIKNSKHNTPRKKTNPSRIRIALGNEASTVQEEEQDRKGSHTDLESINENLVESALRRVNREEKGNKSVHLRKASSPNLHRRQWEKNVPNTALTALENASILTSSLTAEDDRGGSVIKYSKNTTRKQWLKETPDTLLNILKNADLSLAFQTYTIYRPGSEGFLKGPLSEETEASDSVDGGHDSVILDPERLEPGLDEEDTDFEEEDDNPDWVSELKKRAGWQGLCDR

[2] = molecular target: T2, Phosphatidylinositol 4,5-bisphosphate 3-kinase catalytic subunit delta isoform (Homo sapiens) (UniProt O00329); conditions: Compound concentration 1000.0 nM
T2 sequence (whole entry): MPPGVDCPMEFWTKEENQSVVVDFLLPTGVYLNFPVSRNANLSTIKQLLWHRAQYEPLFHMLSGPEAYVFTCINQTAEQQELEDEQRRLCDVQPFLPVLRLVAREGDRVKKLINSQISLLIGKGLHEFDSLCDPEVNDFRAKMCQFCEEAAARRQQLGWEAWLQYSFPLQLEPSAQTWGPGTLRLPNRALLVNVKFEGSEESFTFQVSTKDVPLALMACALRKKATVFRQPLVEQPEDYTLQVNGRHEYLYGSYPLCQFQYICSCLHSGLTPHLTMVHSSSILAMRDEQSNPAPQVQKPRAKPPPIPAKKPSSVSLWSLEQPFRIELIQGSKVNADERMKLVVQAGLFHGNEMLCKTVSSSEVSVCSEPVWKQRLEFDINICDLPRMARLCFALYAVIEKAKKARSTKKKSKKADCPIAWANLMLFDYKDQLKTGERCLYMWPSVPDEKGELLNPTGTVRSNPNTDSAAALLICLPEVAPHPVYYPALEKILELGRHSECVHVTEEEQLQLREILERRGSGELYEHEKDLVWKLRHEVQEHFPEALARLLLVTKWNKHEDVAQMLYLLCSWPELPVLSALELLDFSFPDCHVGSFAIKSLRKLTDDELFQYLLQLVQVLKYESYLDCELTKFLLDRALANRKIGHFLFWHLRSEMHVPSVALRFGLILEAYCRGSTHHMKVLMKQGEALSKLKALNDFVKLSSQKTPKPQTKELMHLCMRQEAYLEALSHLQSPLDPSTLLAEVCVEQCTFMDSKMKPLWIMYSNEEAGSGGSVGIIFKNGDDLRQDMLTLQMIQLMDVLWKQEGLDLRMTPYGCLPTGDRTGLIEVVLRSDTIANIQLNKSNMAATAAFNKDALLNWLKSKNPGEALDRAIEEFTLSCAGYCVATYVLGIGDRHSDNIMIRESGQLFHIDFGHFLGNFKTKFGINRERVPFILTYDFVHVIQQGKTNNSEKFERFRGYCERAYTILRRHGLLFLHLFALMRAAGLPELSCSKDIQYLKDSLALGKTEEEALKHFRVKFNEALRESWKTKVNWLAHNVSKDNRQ

[3] = molecular target: D(1B) dopamine receptor (Homo sapiens) (UniProt P21918); conditions: Compound concentration 10.0 uM
[4] = molecular target: Serine/threonine-protein kinase 38-like (Homo sapiens) (UniProt Q9Y2H1); conditions: Compound concentration 1000.0 nM
[5] = molecular target: Interferon-induced, double-stranded RNA-activated protein kinase (Homo sapiens) (UniProt P19525); conditions: Compound concentration 1000.0 nM

N#Cc1ccc(Nc2ccc3[nH]c(=O)[nH]c3c2)c(Cl)c1
residual activity [1]: 41% | residual activity [2]: 32% | inhibition [3]: 21.3%

O=C1CCc2cc(Nc3cc(OC4CCOCC4)c([N+](=O)[O-])cc3Cl)ccc2N1
residual activity [4]: 41% | residual activity [5]: 46%
